# Earlier results as cited in article PMC8583776, “PD-L1 Inhibitors: Different Classes, Activities, and Mechanisms of Action” (International Journal of Molecular Sciences, 2021).
# System: mPD-L1
# Parameters: method as in PMID 33437940; key: √: particular activity confirmed experimentally; No: the compound was confirmed not to possess a particular activity; n.d.: no data on a particular activity
# Conditions: mouse PD-L1; cited from earlier work
substance,measurement,value
"hPD-1: human PD-1 protein, natural ligand of PD-L1",Target Specificity mPD-L1,√
